In article PMC8500670, “A selective WDR5 degrader inhibits acute myeloid leukemia in patient-derived mouse models” (Science translational medicine, 2021):
Several values for one entry are separate records, joined by “and”; a condition that tells them apart may be missing. Identical values can stand only once.

Biological target: WDR5 (Homo sapiens) (UniProt P61964)
Assay: ITC

Kd: 52 nM and 520 nM
Substance: VCB (VHL-Elongin C-Elongin B) (from UniProt P40337)
